Publication PMC9546861 (2022)

Experiments:
[1] = target: compound e = 8, o1 = 0, o2 = 4 (epitopes linked by PEG moieties (o1 = 0, o2 = 4) to L-lysine cores)
[2] = target: octamer with the lowest affinity (flexible movement of the two sides, sterically restricted epitopes within … (epitopes linked by PEG moieties to L-lysine cores; free N-terminal amino end and C-terminal amide group)
[3] = target: octamer e=8, o1=1, o2=0, o3=3
[4] = target: octamer e=8, o1=2, o2=1, o3=1
[5] = target: octamer e=8, o1=2, o2=0, o3=2
[6] = target: octamer e=8, o1=0, o2=2, o3=2
[7] = target: octamer e=8, o1=0, o2=3, o3=1
[8] = target: octamer e=8, o1=2, o2=2, o3=0
[9] = target: octamer e=8, o1=0, o2=1, o3=3
[10] = target: octamer e=8, o1=1, o2=2, o3=1
[11] = target: octamer e=8, o1=3, o2=0, o3=1
[12] = target: octamer e=8, o1=1, o2=1, o3=2
[13] = target: octamer e=8, o1=0, o2=4, o3=0
[14] = target: octamer e=8, o1=1, o2=3, o3=0
[15] = target: octamer e=8, o1=3, o2=1, o3=0

B1: gephE-DNA conjugate (gephE coupled to the ligand strand) (domain or fragment)
chain: MSPFPLTSMDKAFITVLEMTPVLGTEIINYRDGMGRVLAQDVYAKDNLPPFPASVKDGYAVRAADGPGDRFIIGESQAGEQPTQTVMPGQVMRVTTGAPIPCGADAVVQVEDTELIRESDDGTEELEVRILVQARPGQDIRPIGHDIKRGECVLAKGTHMGPSEIGLLATVGVTEVEVNKFPVVAVMSTGNELLNPEDDLLPGKIRDSNRSTLLATIQEHGYPTINLGIVGDNPDDLLNALNEGISRADVIITSGGVSMGEKDYLKQVLDIDLHAQIHFGRVFMKPGLPTTFATLDIDGVRKIIFALPGNPVSAVVTCNLFVVPALRKMQGILDPRPTIIKARLSCDVKLDPRPEYHRCILTWHHQEPLPWAQSTGNQMSSRLMSMRSANGLLMLPPKTEQYVELHKGEVVDVMVIGRL
modifications: ssDNA (cNL-A48, ligand strand) covalently coupled by its 5' end to a primary amine of the protein (NHS coupling)
In the case of B1, the Kd (tetramer e=8, o1=2, o2=2) is reported as 521 nM, the Kd (tetramer e=6, o1=1, o2=3) is reported as 1350 nM and the Kd (tetramer e=7, o1=0, o2=4) is reported as 721 nM. The Kd (tetramer e=7, o1=4, o2=0) was 1140 nM, the Kd (tetramer e=6, o1=4, o2=0) was 734 nM and the Kd (tetramer e=7, o1=3, o2=1) was 1370 nM. For the same binder, the Kd (tetramer e=7, o1=2, o2=2) was 1680 nM, the Kd (tetramer e=8, o1=4, o2=0) was 442 nM and the Kd (tetramer e=7, o1=1, o2=3) was 1100 nM. For the same binder, the Kd (tetramer e=6, o1=0, o2=4) was 357 nM, the Kd (tetramer e=6, o1=3, o2=1) was 1020 nM and the Kd (tetramer e=6, o1=2, o2=2) was 523 nM. For the same binder, the Kd [1] was 743 nM, the Kd (tetramer e=8, o1=1, o2=3) was 632 nM and the Kd (tetramer e=8, o1=3, o2=1) was 484 nM. The Kd [2] was 245 nM, the Kd [3] was 218 nM and the Kd [4] was 214 nM. For the same binder, the Kd [5] was 179 nM, the Kd [6] was 201 nM and the Kd [7] was 193 nM. It also gave a Kd [8] of 184 nM, a Kd [9] of 199 nM and a Kd [10] of 201 nM. It also gave a Kd [11] of 105 nM, a Kd [12] of 208 nM and a Kd [13] of 214 nM. For the same binder, the Kd [14] was 241 nM and the Kd [15] was 159 nM.
